Only a part is listed here, and it is no random draw. Activity calls are given as the source filed them.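 The calls were made as follows: active = every valid replicate shows activation above 250% relative to neutral control wells; inactive = the rest, any valid replicate at or below 250%.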

A short description of this assay: yeast Mot1-301 growth rescue at high temperature, primary screen, SUMOylation pathway inhibitor project, S. cerevisiae, ATP luminescence, 38.5C (AID 2716).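 Also: OY570 slx delta 5 strain wells were the positive control but not used for scaling.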 The settings on record: S. cerevisiae Mot1-301 growth rescue, at 18.8 µM, active compounds read high, percent above DMSO median, 100 means doubled.
As for `CCOc1ccc(C)cc1CN(CCCl)CCCl`, the growth rescue is inactive: -11.6%.

`O=C(NCC1(N2CCCCC2)CCCCC1)c1ccc(F)cc1`: the growth rescue was inactive: 9.04%.

On to `CCOC(=O)N1CCC(Nc2ccc(F)cc2)CC1`, for which the growth rescue is inactive: 37.6%.

With `COc1ccc(NC2CCN(CCc3ccccc3)CC2)c(OC)c1`, the growth rescue is inactive: 15.2%.

Regarding `COc1cc(C(=O)NCC2(N(C)C)CCCCC2)ccc1OC(F)F`, the growth rescue was inactive: 17.2%.

As to `CCOC(=O)N1CCC(Nc2cccc(C)c2)CC1`, the growth rescue is inactive: -9.48%.

`Cc1ccc(OCC(C)C)c(CN(CCCl)CCCl)c1`: the growth rescue was inactive: 2.5%.

For `O=C(NCC1(N2CCCCC2)CCCCC1)c1ccc(=O)[nH]c1`, the growth rescue was inactive: 2.64%.

Regarding `O=C(NCC1(N2CCCCC2)CCCCC1)c1cccs1`, the growth rescue was inactive: -4.98%.

Regarding `COc1ccc(C(=O)NCC2(N3CCCCC3)CCCCC2)cc1`, the growth rescue was inactive: -21.8%.

Consider `COc1ccc(C(=O)NCC2(N3CCCCC3)CCCCC2)c(OC)c1OC`, for which the growth rescue is inactive: 169%.

Turning to `CC(C)(C)OC(=O)N1CCC(N(C(=O)c2ccccc2)c2ccc(F)cc2)CC1`, the growth rescue was inactive: 11.8%.

Turning to `CSc1ccccc1C(=O)NCC1(N2CCCCC2)CCCCC1`, the growth rescue is inactive: -4.84%.

With `O=C(NCC1(N2CCOCC2)CCCCC1)c1cc2ccccc2o1`, the growth rescue was inactive: 3.3%.

Consider `O=C(NCC1(N2CCCCC2)CCCCC1)c1ccc(Cl)nc1`, for which the growth rescue was inactive: -13%.

For `Cc1cc(C)cc(N(C(=O)c2ccccc2)C2CCN(C(=O)OC(C)(C)C)CC2)c1`, the growth rescue is inactive: -1.12%.

`CCOC(=O)N1CCC(Nc2ccc(OC)cc2)CC1`: the growth rescue is inactive: -11.8%.

Regarding `O=C(OC1CN2CCC1CC2)C1c2ccccc2Oc2ccccc21` (stereo not given), the growth rescue was inactive: -21.9%.

As to `N#CC1(Nc2ccccc2)CCN(Cc2ccccc2)CC1`, the growth rescue was inactive: 4.1%.

Take `O=C(NCC1(N2CCCCC2)CCCCC1)c1ccc(Cl)s1`: the growth rescue is inactive: 0.135%.

As to `COc1ccc(Cl)cc1C(=O)NCC1(N2CCOCC2)CCCCC1`, the growth rescue is inactive: 7.39%.

Consider `COc1ccc(CN(CCCl)CCCl)cc1Cl`, for which the growth rescue is inactive: 188%.

As to `CN(C)c1cccc(C(=O)NCC2(N3CCCCC3)CCCCC2)c1`, the growth rescue is inactive: 15.9%.

With `CC(C)c1ccc(NC2CCN(C(=O)OC(C)(C)C)CC2)cc1`, the growth rescue was inactive: -15.1%.

Regarding `COc1cc(OC)c(C(=O)NCC2(N(C)C)CCCCC2)cc1OC`, the growth rescue is inactive: -1.42%.

Regarding `O=C(NCC1(N2CCOCC2)CCCCC1)c1cc(F)c(F)cc1Cl`, the growth rescue is inactive: -12.7%.

On to `O=C(NCC1(N2CCCCC2)CCCCC1)c1cncc(Br)c1`, for which the growth rescue was inactive: -4.77%.

For `CN1CCC(Nc2cccc(F)c2)CC1`, the growth rescue is inactive: -4.76%.

Consider `CCCOc1ccc(C(=O)NCC2(N(C)C)CCCCC2)cc1OC`, for which the growth rescue is inactive: 3.96%.

In the case of `O=C(NCC1(N2CCCCC2)CCCCC1)c1ccc(OC(F)F)cc1`, the growth rescue was inactive: 111%.

As to `O=C(NCC1(N2CCCCC2)CCCCC1)c1cccc([N+](=O)[O-])c1`, the growth rescue was inactive: 8.33%.

With `CCN1CCC(Nc2ccc(Cl)cc2)CC1`, the growth rescue was inactive: -12.3%.

With `N#CC1(Nc2ccccc2)CCN(CCc2ccccc2)CC1`, the growth rescue was inactive: 23.2%.

On to `O=C(NCC1(N2CCCCC2)CCCCC1)c1cccc(C(F)(F)F)c1`, for which the growth rescue was inactive: -20.8%.

Take `CN1CCN(CCOC(=O)C(O)(c2ccccc2)c2ccccc2)CC1`: the growth rescue was inactive: -9.49%.

As for `O=C(NCC1(N2CCOCC2)CCCCC1)c1cc(=O)[nH]c2ccccc12`, the growth rescue is inactive: -20.9%.

In the case of `COc1cc(C(=O)NCC2(N3CCCCC3)CCCCC2)ccc1OC(F)F`, the growth rescue was inactive: -3.95%.

For the compound `CC(C)(C)OC(=O)N1CCC(N(C(=O)c2ccccc2)c2ccc(Cl)cc2)CC1`, the growth rescue was inactive: -7.71%.

Consider `N#Cc1ccc(C(=O)NCC2(N3CCCCC3)CCCCC2)cc1`, for which the growth rescue is inactive: 2.69%.

Regarding `c1ccc(CN2CCC(Nc3ccccc3)CC2)cc1`, the growth rescue was active: 560%.

With `CCCN1CCC(Nc2cc(OC)cc(OC)c2)CC1`, the growth rescue was inactive: 2650%.

As to `CN(C)C1(CNC(=O)c2cccc(C#N)c2)CCCCC1`, the growth rescue is inactive: 9.15%.

As for `O=C(NCC1(N2CCOCC2)CCCCC1)c1cc(Br)ccc1Cl`, the growth rescue is inactive: -8.22%.

With `COc1cc(C(=O)NCC2(N3CCOCC3)CCCCC2)cc(OC)c1C`, the growth rescue is inactive: -9.23%.

Consider `COc1ccc(C(=O)NCC2(N3CCOCC3)CCCCC2)cc1OC`, for which the growth rescue is inactive: -7.67%.

With `N/C(=N\O)c1c(N)no[n+]1[O-]`, the growth rescue is inactive: -10.8%.

Turning to `CCOC(=O)N1CCC(Nc2ccc(C)cc2)CC1`, the growth rescue is inactive: -18.8%.

As to `O=C(OC1CN2CCC1CC2)C1c2ccccc2C=Cc2ccccc21` (stereo not given), the growth rescue is inactive: -6.63%.

Turning to `CCc1cc(C(=O)NCC2(N3CCCCC3)CCCCC2)sc1C`, the growth rescue is inactive: 12.6%.

As to `CCOc1ncccc1C(=O)NCC1(N2CCOCC2)CCCCC1`, the growth rescue was inactive: -3.07%.

In the case of `CN1CCC(Nc2ccc(F)c(Cl)c2)CC1`, the growth rescue is inactive: -13.3%.

As to `CCCOc1ccc(C(=O)NCC2(N(C)C)CCCCC2)cc1`, the growth rescue was inactive: -6.34%.

`CC(C)(C)OC(=O)N1CCC(Nc2ccccc2)CC1`: the growth rescue was inactive: -7.14%.

With `O=C(O)C1(Nc2ccccc2)CCN(Cc2ccccc2)CC1`, the growth rescue was inactive: -11.8%.

On to `CCC(CO)(C(=O)OC1CN2CCC1CC2)c1ccccc1` (stereo not given), for which the growth rescue is inactive: -2.85%.

Turning to `COc1cccc(C(=O)N(c2cc(C)cc(C)c2)C2CCN(C(=O)OC(C)(C)C)CC2)c1`, the growth rescue was inactive: -4.07%.

Turning to `COc1cc(OC)cc(C(=O)NCC2(N3CCOCC3)CCCCC2)c1`, the growth rescue was inactive: -24.7%.

For `CCCOc1ccc(C)cc1CN(CCCl)CCCl`, the growth rescue was inactive: 11.8%.

As to `CN1CCC(Nc2ccc(Cl)cc2)CC1`, the growth rescue is inactive: 1930%.

For `COc1cc(OC)cc(C(=O)NCC2(N3CCCCC3)CCCCC2)c1`, the growth rescue was inactive: 12.7%.

Consider `Cc1ccc(C(=O)NCC2(N3CCCCC3)CCCCC2)o1`, for which the growth rescue was inactive: -7.86%.

With `Fc1ccccc1NC1CCN(Cc2ccccc2)CC1`, the growth rescue is inactive: -22.8%.

On to `CCN1CCC(Nc2cccc(F)c2)CC1`, for which the growth rescue is inactive: -16%.

With `O=C(NCC1(N2CCCCC2)CCCCC1)c1ccco1`, the growth rescue was inactive: 32.3%.

Regarding `CN(C)c1ccc(C(=O)NCC2(N3CCCCC3)CCCCC2)cc1`, the growth rescue is inactive: -7.35%.

These data come from PubChem BioAssay AID2716 (Broad Institute, 2010).
